# OPERA 2.9 data: water solubility values

Source: data files of OPERA 2.9 (Mansouri et al.), github.com/kmansouri/OPERA.

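The numbers are reported measurements, compiled and curated for the OPERA QSAR suite. The files give a single number for a compound and property, which may rest on several reports. Conditions of the individual experiments are not part of the data. The measured form (salt, isomer or mixture) is not always the one drawn. Some upstream entries may be estimates or bounds without being marked so.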

Water solubility is log10 of mol/L, nominally at 25 °C; higher is more soluble.

structure (SMILES) | water solubility (log10 mol/L)
C=CC(O)C#CC(C)(C)C (stereo not given) | -1.506
CC(=O)OCC1=C(C(=O)O)N2C(=O)[C@@H](NC(=O)CC#N)[C@H]2SC1 | -2.145
O=C(NCCCCCCNC(=O)OCCCCO)OCCCCO | -1.929
O=C(OCCOCCOCCOC(=O)c1ccccc1)c1ccccc1 | -4.071
C=CCCCCCCCCC(=O)NCC(=O)O | -3.474
Cc1ccccc1NC(=N)NC(=N)N | -1.842
CC(=O)Nc1ncc([N+](=O)[O-])s1 | -2.07
COC(=O)C1=CO[C@@H](OC2OC(CO)C(O)C(O)C2O)[C@@H]2[C@@H](C)[C@@H](O)C[C@H]12 (stereo partly drawn) | -0.591
CCC(C)NC(N)=O (stereo not given) | -0.463
CC(=O)OCC1CCC=C(CCC=C(C)C)C1 (stereo not given) | -4.976
CC1(C)S[C@@H]2[C@H](NC(=O)[C@H](C(=O)O)c3ccsc3)C(=O)N2[C@H]1C(=O)O | -3.73
CCCCOc1cccc(F)c1F | -4.823
O=C([O-])C(=O)CS.[Na+] | 0.148
NC(=O)C1OC(=O)c2ccccc21 (stereo not given) | -2.134
CCCCCCCCCCCCCCN(C)C | -3.936
CCC(=O)OCC(=O)OC(C)C1CCCC(C)(C)C1 (stereo not given) | -4.367
COC(=O)C(CNC(=O)c1ccccc1C(F)(F)F)(C(=O)OC)c1ncc(C(F)(F)F)cc1Cl | -4.534
CC(C)[C@@H]1CC[C@@H](C)C[C@H]1OC(=O)[C@@H]1CCC(=O)N1 | -2.633
CC1(C(=O)O)CC(C(=O)O)C(C)(C)C1 (stereo not given) | -1.639
CCOC(=O)CC1(C)OCC(C)O1 (stereo not given) | -2.18
Clc1ccc(COC(Cn2ccnc2)c2ccc(Cl)cc2Cl)c(Cl)c1 (stereo not given) | -5.737
COc1nc(C)nc(=NC(O)=NS(=O)(=O)c2ccccc2C(=O)O)[nH]1 | -3.33
CC(=O)N[C@@H](Cc1cc([N+](=O)[O-])c(O)c([N+](=O)[O-])c1)C(=O)O | -2.228
O=C(OCc1ccccc1)c1ccccc1O | -4.191
CCCCCC(CCC)COC(=O)OCC(CCC)CCCCC (stereo not given) | -7.234
O=C(Nc1ccc(Cl)cc1)Nc1ccc(Cl)c(Cl)c1 | -5.704
O=C(O)C(c1ccccc1)(c1ccccc1)c1ccccc1 | -3.759
COc1ccc(C(=O)Nc2ccc(C(N)=O)cc2)cc1[N+](=O)[O-] | -4.654
OCc1cc(C(O)CNCCCCCCOCCCCc2ccccc2)ccc1O (stereo not given) | -5.265
COc1ccccc1NC(=O)c1cc2ccccc2c(N=Nc2ccc(C(N)=O)cc2)c1O | -8.167

The first 3 entries again:

{"smiles": "C=CC(O)C#CC(C)(C)C", "stereo": "stereo not given", "water solubility (log10 mol/L)": "-1.506"}
{"smiles": "CC(=O)OCC1=C(C(=O)O)N2C(=O)[C@@H](NC(=O)CC#N)[C@H]2SC1", "water solubility (log10 mol/L)": "-2.145"}
{"smiles": "O=C(NCCCCCCNC(=O)OCCCCO)OCCCCO", "water solubility (log10 mol/L)": "-1.929"}